In PubChem BioAssay AID588358 (NMMLSC, 2011):
The list shows a part of the results, in another mix than the full data. Calls of active or inactive are those of the source.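 Rule for the calls: active = binding more than 3 SD below its plate's average and above zero; inconclusive = below that plate limit but binding exactly zero; inactive = the rest.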

Sequences of proteins named here, by UniProt entry; tags and fusion partners are left off. A change or cut given only in a name is not applied to a line headed by its entry.
UniProt P32926: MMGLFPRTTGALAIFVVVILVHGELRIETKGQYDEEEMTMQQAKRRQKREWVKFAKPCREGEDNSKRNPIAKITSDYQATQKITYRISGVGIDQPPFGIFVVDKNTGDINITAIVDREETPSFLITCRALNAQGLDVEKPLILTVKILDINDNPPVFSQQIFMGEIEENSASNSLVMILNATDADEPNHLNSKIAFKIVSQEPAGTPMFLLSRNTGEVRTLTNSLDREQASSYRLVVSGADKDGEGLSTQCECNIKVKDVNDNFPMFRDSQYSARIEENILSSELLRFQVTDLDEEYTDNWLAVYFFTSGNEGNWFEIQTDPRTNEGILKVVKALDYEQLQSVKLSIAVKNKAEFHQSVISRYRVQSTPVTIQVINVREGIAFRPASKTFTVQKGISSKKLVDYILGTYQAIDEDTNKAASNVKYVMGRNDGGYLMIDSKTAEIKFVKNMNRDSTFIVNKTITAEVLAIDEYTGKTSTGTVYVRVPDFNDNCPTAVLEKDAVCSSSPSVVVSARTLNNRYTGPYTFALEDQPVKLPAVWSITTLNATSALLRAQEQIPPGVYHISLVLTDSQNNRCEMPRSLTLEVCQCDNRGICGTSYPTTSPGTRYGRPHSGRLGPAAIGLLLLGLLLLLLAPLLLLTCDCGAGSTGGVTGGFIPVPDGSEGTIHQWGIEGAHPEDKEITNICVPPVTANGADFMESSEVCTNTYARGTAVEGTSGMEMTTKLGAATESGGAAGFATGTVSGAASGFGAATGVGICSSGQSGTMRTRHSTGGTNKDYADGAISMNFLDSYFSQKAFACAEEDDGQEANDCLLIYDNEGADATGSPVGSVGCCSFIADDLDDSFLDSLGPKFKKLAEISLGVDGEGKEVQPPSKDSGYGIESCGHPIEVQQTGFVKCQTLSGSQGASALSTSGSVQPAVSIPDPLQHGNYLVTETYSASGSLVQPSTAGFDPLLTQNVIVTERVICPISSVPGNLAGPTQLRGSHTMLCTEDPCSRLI

Biological target: Desmoglein-3 (Homo sapiens) (UniProt P32926)
Assay: inhibitors of pemphigus antibody binding to DSG3, primary screen, biochemical, bead-based, flow cytometry, scFv-GFP (AID 588358);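 note: hits lower antibody fragment binding to DSG3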
Conditions: DSG3-coupled beads, scFv-anti-DSG3-GFP binding, at 10 µM, hits give low values

SMILES	binding (percent of control)
O=P1(N(CCCl)CCCl)OCCCS1 (configuration not stated)	inactive: 110%
O=C(Nc1cc([As](=O)(O)O)ccc1O)c1ccccc1	inactive: 91.7%
Nc1ccc([As](=O)(O)c2ccc(N)cc2)cc1	inactive: 106%
C[N+]1=C2C=CC=CC=C2SC12C([N+](=O)[O-])=CC([N+](=O)[O-])=C[C-]2[N+](=O)[O-] (configuration not stated)	inactive: 87.1%
CCN(/C(=N/P(=O)(N1CCOCC1)N1CCOCC1)N1CCOCC1)c1ccc(OC)cc1	inactive: 85.9%
CC(C)c1nc(Nc2ccccc2)n(P(=O)(N(C)C)N(C)C)n1	inactive: 101%
CC(C)=N/N=C(\N)N[N+](=O)[O-]	inactive: 97.7%
CN(C)C(=O)OCCc1n(C)cc[n+]1C	inactive: 99.8%
CC1CCN(C(=O)Oc2c(Cl)cc(Cl)c3cccnc23)CC1	inactive: 108%
c1cc(-c2nn[nH]n2)ccc1-c1nn[nH]n1	inactive: 111%
COc1ccc(C2=NCC(CBr)S2)cc1 (configuration not stated)	inactive: 110%
O=[N+]([O-])c1cccc2n[nH]nc12	inactive: 98.5%
CC(=O)N1C2C3N(C(C)=O)C1C1N(C(C)=O)C(C(N1C(C)=O)N3C(C)=O)N2C(C)=O	inactive: 104%
Cc1ccc(NP(=O)(Oc2ccccc2)Oc2ccccc2)nc1	inactive: 93.5%
CCc1nc2c(n1)c1c(non1O)c1c2no[n+]1[O-]	inactive: 105%
O=[N+]([O-])c1cc([N+](=O)[O-])c(CCNc2ccccc2)c([N+](=O)[O-])c1	inactive: 95.6%
CC(C)C(=O)NC(Sc1ccccc1)C(Cl)(Cl)Cl (configuration not stated)	inactive: 98.4%
O=P(Nc1nccs1)(c1ccccc1)c1ccccc1	inactive: 104%
c1nnnn1CCn1cnnn1	inactive: 97%
O=[N+]([O-])c1ccc(O)c(/C=N/Nc2ccc([N+](=O)[O-])cc2[N+](=O)[O-])c1	inactive: 116%
CC(=O)NC(SC(=S)N(C)C)C(Cl)(Cl)Cl (configuration not stated)	inactive: 103%
O=[N+]([O-])c1ncn(CCn2cnc([N+](=O)[O-])n2)n1	inactive: 97.3%
O=[As](O)(c1ccccc1)c1ccc(O)cc1	inactive: 96%
C(Cc1nn[nH]n1)Cc1nn[nH]n1	inactive: 84.3%
Nc1ccc([As](=O)(O)c2ccc([N+](=O)[O-])cc2)cc1	inactive: 104%
COc1ccc(N)c([N+](=O)[O-])c1[N+](=O)[O-]	inactive: 115%

SMILES	binding (percent of control)
O=P(Nc1ccccn1)(c1ccc(Br)cc1)c1ccc(Br)cc1	inactive: 113%
CN(C)C1(CNC(=O)c2ccc(Cl)c(S(N)(=O)=O)c2)CCCCC1	inactive: 104%
O=P(Nc1nc2ccccc2s1)(c1ccccc1)c1ccccc1	inactive: 98.4%
C[C@H]1OP(=O)(Oc2ccccc2)[C@H](O)[C@H](O)[C@H]1N=[N+]=[N-] (some centres not stated)	inactive: 110%
COC(=O)c1cc2c(s1)N=C(c1ccccc1)N(C)P2(=O)N1CCOCC1 (configuration not stated)	inactive: 102%
CC(=O)NC(SC(=S)N(CC(C)C)CC(C)C)C(Cl)(Cl)Cl (configuration not stated)	inactive: 97.4%
Cc1ccc(OP(=O)(Nc2ccccn2)Oc2ccc(C)cc2)cc1	inactive: 108%
O=C(OC1CN2CCC1CC2)c1ccccc1 (configuration not stated)	inactive: 88.2%
CCC(=O)N1C2C3N(C(=O)CC)C1C1N(C(=O)CC)C(C(N1C(=O)CC)N3C(=O)CC)N2C(=O)CC	inactive: 109%
CC(NC(=O)COC(=O)C(O)(c1ccccc1)c1ccccc1)c1ccccc1 (configuration not stated)	inactive: 104%
O=c1c2cc([N+](=O)[O-])ccc2[nH]c2c([N+](=O)[O-])cc([N+](=O)[O-])cc12	inactive: 75.7%
CN(C)C(=O)Oc1noc2ccccc12	inactive: 102%
CCNC(=S)/N=C(\N)N[N+](=O)[O-]	inactive: 102%
O=C(NC1CCS(=O)(=O)C1)NP(=S)(Oc1ccccc1)Oc1ccccc1 (configuration not stated)	inactive: 96.2%
Cc1ccc(NP(=O)(Oc2cccc(C)c2)Oc2cccc(C)c2)nc1	inactive: 94.7%
O=P1(N(CCCl)CCCl)OCCC2CCCCN21 (configuration not stated)	inactive: 115%
CC(=O)c1ccc(N2CC2c2ccncc2)cc1 (configuration not stated)	inactive: 94.8%
COC(=O)C1(C)COP(=O)(NCc2ccccc2)OC1 (configuration not stated)	inactive: 87.6%
Cc1ccccc1CN(C)C(=O)COC(=O)C(O)(c1ccccc1)c1ccccc1	inactive: 100%
C[C@H]1OP(=O)(Oc2ccccc2)C[C@@H]2O[C@@H]21 (some centres not stated)	inactive: 98.6%
C[C@@H]1C=CCP(=O)(Oc2ccccc2)O1 (some centres not stated)	inactive: 102%
CC(=O)Nc1ccc([As](=O)(O)O)c(O)c1	inactive: 101%
CC(=O)Nc1ccc(Oc2c([N+](=O)[O-])cc([N+](=O)[O-])cc2[N+](=O)[O-])cc1	inactive: 102%
CCOc1ccc(C2=NCC(CBr)S2)cc1 (configuration not stated)	inactive: 99.1%
CCc1cc(O)c([N+](=O)[O-])c(C)c1[N+](=O)[O-]	inactive: 90.7%
CC(C)(C)C(=O)NC(Sc1ccccc1)C(Cl)(Cl)Cl (configuration not stated)	inactive: 98.2%
